By UniProt entry, the sequences of proteins in these tests, tags left out.
UniProt P21728, whole entry: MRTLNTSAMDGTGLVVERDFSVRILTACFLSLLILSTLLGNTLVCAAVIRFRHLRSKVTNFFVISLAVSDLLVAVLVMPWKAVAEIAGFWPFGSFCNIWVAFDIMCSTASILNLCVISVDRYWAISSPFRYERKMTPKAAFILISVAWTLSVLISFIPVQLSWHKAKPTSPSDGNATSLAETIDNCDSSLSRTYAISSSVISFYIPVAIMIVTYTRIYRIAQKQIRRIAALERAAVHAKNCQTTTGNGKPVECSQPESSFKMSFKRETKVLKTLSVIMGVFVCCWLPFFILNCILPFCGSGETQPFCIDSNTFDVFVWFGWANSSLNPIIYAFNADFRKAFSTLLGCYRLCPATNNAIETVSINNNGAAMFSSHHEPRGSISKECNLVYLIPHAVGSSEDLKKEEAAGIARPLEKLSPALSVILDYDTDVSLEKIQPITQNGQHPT

In patent US7423149B2, “Substituted n-aryl amidines as selective D1 dopamine receptor antagonists for the treatment of obesity and CNS disorders” (Schering Corporation, priority 2003, dated 2008):

Molecular target: human Dopamine D1 receptor (Homo sapiens, UniProt P21728)
Assay: radioligand binding competition assay, displacement of [3H]SCH 23390 from D1 receptor (Ltk-cells membranes)
Details: read-out: D1 binding and D2:D1 Selectivity, class combines Ki (D1) and, for A and B
Excerpt: Biological Activity: Compounds from this disclosure have been biologically characterized by their ability to displace a known D1-like selective ligand, [3H]SCH 23390 from the human Dopamine D1 receptor, and a known D2-like selective ligand, [3H] Methylspiperone, from the human Dopamine D2 and D4 receptors.
Affinity values (Ki) of compounds at human dopamine receptors were ascertained using radioligand binding competition assays. Cells expressing D1 (Ltk-cells), D2 (long variant, Ltk-cells), D4 (CHO cells) and D5 (GH4C1 cells) receptors were lysed in hypotonic buffer for membrane preparation. Membranes were incubated with various concentrations of test compound and 1 nM [3H] SCH 23390 (D1 and D5) and 0.2 nM [3H] Methylspiperone for (D2 and D4) assays. Non-specific binding was defined as binding in the presence of 10 micromolar of SCH 23390 for D1 and D5 assays and 10 micromolar butaclamol for D2 and D4 assays. Following incubation to equilibrium (1 hour at room temperature), bound radioligand was separated from free by rapid filtration. Bound radioactivity on the dried filters was quantified by liquid scintillation counting.
Selectivity is determined by dividing Ki for D2, D4 or D5 receptors by Ki for D1 receptor.

SMILES: Cn1ccc2cc(-c3ccc(/C=C/C(=N)Nc4ccc(Cl)cc4)cc3)ccc21
- Ki: 10 to 50 nM
